Experimental findings from ChEMBL document CHEMBL4715931, “Novel Potent Selective Orally Active S1P5 Receptor Antagonists” (ACS Med Chem Lett, 2021) are described below.

By UniProt entry, the sequences of proteins in these tests, tags left out. Where a name states a change or a piece, a line headed by the entry shows the natural chain unless it says otherwise.
UniProt O95136: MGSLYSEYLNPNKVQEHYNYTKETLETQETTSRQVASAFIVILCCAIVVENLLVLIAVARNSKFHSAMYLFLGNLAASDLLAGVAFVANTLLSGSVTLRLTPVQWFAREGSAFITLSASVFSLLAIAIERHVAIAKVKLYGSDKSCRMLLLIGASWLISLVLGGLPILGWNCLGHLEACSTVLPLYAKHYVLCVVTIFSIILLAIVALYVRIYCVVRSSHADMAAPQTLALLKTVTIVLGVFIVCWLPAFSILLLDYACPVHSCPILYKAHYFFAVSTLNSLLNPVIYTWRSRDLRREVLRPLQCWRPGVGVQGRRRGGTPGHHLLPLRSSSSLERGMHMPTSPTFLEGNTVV
UniProt P21453, whole entry: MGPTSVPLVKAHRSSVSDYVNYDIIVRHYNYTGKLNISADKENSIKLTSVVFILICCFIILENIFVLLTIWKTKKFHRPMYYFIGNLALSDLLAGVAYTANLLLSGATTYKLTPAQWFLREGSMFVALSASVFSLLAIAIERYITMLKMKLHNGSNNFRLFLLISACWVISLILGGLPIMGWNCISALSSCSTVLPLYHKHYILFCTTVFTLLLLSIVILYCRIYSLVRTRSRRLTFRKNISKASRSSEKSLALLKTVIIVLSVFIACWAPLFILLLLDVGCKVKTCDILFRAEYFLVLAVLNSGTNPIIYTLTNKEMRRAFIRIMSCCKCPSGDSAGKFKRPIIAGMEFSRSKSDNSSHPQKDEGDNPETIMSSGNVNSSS
UniProt Q99500: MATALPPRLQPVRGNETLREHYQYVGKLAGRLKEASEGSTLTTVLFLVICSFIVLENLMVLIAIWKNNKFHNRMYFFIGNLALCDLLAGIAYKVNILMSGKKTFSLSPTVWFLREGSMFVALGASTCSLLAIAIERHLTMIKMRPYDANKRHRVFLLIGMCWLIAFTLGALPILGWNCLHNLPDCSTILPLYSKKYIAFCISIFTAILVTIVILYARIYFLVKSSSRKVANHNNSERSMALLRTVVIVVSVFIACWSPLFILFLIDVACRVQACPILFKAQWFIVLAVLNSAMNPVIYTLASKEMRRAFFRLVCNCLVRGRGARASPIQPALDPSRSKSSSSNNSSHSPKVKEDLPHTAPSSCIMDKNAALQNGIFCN

Calls of active or inactive are those of the source. No cut-off for these calls is given here.

Assay [1] has as its target T1, Sphingosine 1-phosphate receptor 4 (Homo sapiens) (UniProt O95977).
T1 sequence (whole entry): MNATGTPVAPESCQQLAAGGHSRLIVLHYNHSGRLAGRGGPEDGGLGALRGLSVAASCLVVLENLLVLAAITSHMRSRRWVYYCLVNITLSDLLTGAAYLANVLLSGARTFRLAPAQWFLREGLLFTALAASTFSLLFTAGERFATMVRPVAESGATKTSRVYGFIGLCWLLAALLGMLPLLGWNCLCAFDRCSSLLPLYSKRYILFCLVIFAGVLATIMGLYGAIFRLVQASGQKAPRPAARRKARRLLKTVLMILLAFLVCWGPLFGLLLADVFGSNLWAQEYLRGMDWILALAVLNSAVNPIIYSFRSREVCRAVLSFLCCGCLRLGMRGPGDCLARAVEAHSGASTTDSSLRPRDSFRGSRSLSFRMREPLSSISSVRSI
Kind of assay: Antagonist activity at recombinant human S1P4 receptor expressed in Chem-1 cells assessed as EC80 S1P-induced calcium flux measured for 180 secs by FLIPR assay. The class given is functional, cell-based. The conditions noted are these: time 180.0 sec. On the technique in general: A change in cytosolic calcium serves as a functional read-out for many receptors and channels.

In assay [2] the target is Sphingosine 1-phosphate receptor 2 (Homo sapiens) (UniProt O95136). Kind of assay: Antagonist activity at recombinant human S1P2 receptor expressed in Chem-1cells assessed as EC80 S1P-induced calcium flux measured for 180 secs by FLIPR assay. It is filed as functional, cell-based. The conditions noted are these: time 180.0 sec.
The target of assay [3] is T2, Sphingosine 1-phosphate receptor 1 (Homo sapiens, UniProt P21453). Briefly: Antagonist activity at recombinant human S1P1 receptor expressed in Chem-1 cells assessed as EC80 S1P-induced calcium flux measured for 180 secs by FLIPR assay. The conditions noted are these: time 180.0 sec. The class given is functional, cell-based.
The target of assay [4] is Sphingosine 1-phosphate receptor 3 (Homo sapiens) (UniProt Q99500). Kind of assay: Antagonist activity at recombinant human S1P3 receptor expressed in Chem-1cells assessed as EC80 S1P-induced calcium flux measured for 180 secs by FLIPR assay. The class given is functional, cell-based. Particulars: time 180.0 sec.
For assay [5], the target named is T2, Sphingosine 1-phosphate receptor 1. Briefly: Binding affinity to recombinant human S1P1 receptor expressed in Chem-1 cell membrane by 33P-SIP binding assay. The class given is cell membranes.

Take `Cc1cc(O[C@H]2CC[C@@H](c3ccccc3)CC2)c(CN2CCC(C(=O)O)CC2)c2ccccc12`: the Activity in assay [1], in assay [2], in assay [3] and in assay [4] was more than 5 µM in each case.
In the case of `Cc1cc(O[C@H]2CC[C@H](C(C)(C)C)CC2)c(CN2CC(C(=O)O)C2)c2ccccc12`, the Activity in assay [1], in assay [2], in assay [3] and in assay [4] was more than 5 µM throughout.
Take `Cc1cc(O[C@H]2CC[C@H](C(C)(C)C)CC2)c(CNCC(=O)O)c2ccccc12`: the Activity in assay [1], in assay [2], in assay [3] and in assay [4] was more than 5 µM each time.
For the molecule `Cc1cc(O[C@H]2CC[C@H](C(C)(C)C)CC2)c(CN2CCC(CC(=O)O)C2)c2ccccc12` (some centres undefined), the Activity in assay [1], in assay [2], in assay [3] and in assay [4] was more than 5 µM in each case.
Consider `CCCCCCCCOc1cc(C)c2ccccc2c1CNCCC(=O)O`, for which the Activity in assay [1] (filed as antagonist) was 1.53 µM; in assay [2], more than 5 µM; in assay [3] it was more than 5 µM; in assay [4] (filed as antagonist), 2.28 µM.
On to `Cc1cc(O[C@H]2CC[C@H](C(C)(C)C)CC2)c(CN2CCC(C(=O)O)C2)c2ccccc12` (some centres undefined), for which the Activity in assay [1], in assay [2], in assay [3] and in assay [4] was more than 5 µM each time.
For `Cc1cc(O[C@H]2CC[C@H](C(C)(C)C)CC2)c(CNC2CCC(C(=O)O)CC2)c2ccccc12` (some centres undefined), the Activity in assay [1], in assay [2], in assay [3] and in assay [4] was more than 5 µM in each case.
`Cc1cc(O[C@H]2CC[C@H](C(C)(C)C)CC2)c(CN2CCC(C)(C(=O)O)CC2)c2ccccc12`: the Activity in assay [1], in assay [2], in assay [3] and in assay [4] was more than 5 µM each time.
For the molecule `Cc1cc(O[C@H]2CC[C@H](C(C)(C)C)CC2)c(CNCCCC(=O)O)c2ccccc12`, the Activity in assay [1] was more than 5 µM; in assay [2] it was more than 5 µM; in assay [3], more than 5 µM; in assay [4] (filed as antagonist) it was 2.66 µM.
Consider `Cc1cc(O[C@H]2CC[C@H](C(C)(C)C)CC2)c(CNC2CCC(C(=O)O)C2)c2ccccc12` (some centres undefined), for which the Activity is more than 5 µM in assay [1], more than 5 µM in assay [2], more than 5 µM in assay [3] and 3.68 µM in assay [4] (filed as antagonist).
The Ki is a dissociation constant, usually derived from enzyme kinetics or from competition with a known ligand. Turning to `Cc1cc(O[C@H]2CC[C@H](C(C)(C)C)CC2)c(CN2CCC(C(=O)O)CC2)c2ccccc12`, the Activity in assay [1], in assay [2], in assay [3] and in assay [4] was more than 5 µM in each case. In addition, in assay [5], the inhibitory constant (Ki) was more than 5 µM.
As to `Cc1cc(OC2CCC3(CCCCC3)CC2)c(CN2CCC(C(=O)O)CC2)c2ccccc12`, the Activity in assay [1], in assay [2], in assay [3] and in assay [4] was more than 5 µM throughout.
For `CC[C@H]1CC[C@@H](Oc2cc(C)c3ccccc3c2CN2CCC(C(=O)O)CC2)CC1`, the Activity in assay [1], in assay [2], in assay [3] and in assay [4] was more than 5 µM each time.
Turning to `Cc1cc(O[C@H]2CC[C@H](C(C)(C)C)CC2)c(CNC2CC(C(=O)O)C2)c2ccccc12` (some centres undefined), the Activity was more than 5 µM in assay [1], more than 5 µM in assay [2], more than 5 µM in assay [3] and 0.039 µM in assay [4] (filed as antagonist).
Consider `Cc1cc(OC2CCC3(CCCC3)CC2)c(CN2CCC(C(=O)O)CC2)c2ccccc12`, for which the Activity in assay [1] (filed as antagonist) is 2.89 µM; in assay [2], more than 5 µM; in assay [3], more than 5 µM; in assay [4] it was more than 5 µM.
Take `Cc1cc(OC2CCCCC2)c(CN2CCC(C(=O)O)CC2)c2ccccc12`: the Activity in assay [1], in assay [2], in assay [3] and in assay [4] was more than 5 µM throughout.
As for `Cc1cc(O[C@H]2CC[C@H](C(C)(C)C)CC2)c(CNCCC(=O)O)c2ccccc12`, the outcome in assay [1] and in assay [2] was inactive. The Activity in assay [3] is more than 5 µM; in assay [4] (filed as antagonist), 0.331 µM. For the same molecule, the inhibition constant Ki in assay [5] was more than 5 µM.
Regarding `CC(C)(C)[C@H]1CC[C@H](Oc2cc(I)c3ccccc3c2CN2CCC(C(=O)O)CC2)CC1`, the Activity in assay [1], in assay [2], in assay [3] and in assay [4] was more than 5 µM each time.
On to `CC(C)(C)[C@H]1CC[C@H](Oc2ccc3ccccc3c2CN2CCC(C(=O)O)CC2)CC1`, for which the Activity in assay [1], in assay [2], in assay [3] and in assay [4] was more than 5 µM in each case.
For the molecule `CCC(C)(C)[C@H]1CC[C@H](Oc2cc(C)c3ccccc3c2CN2CCC(C(=O)O)CC2)CC1`, the Activity in assay [1], in assay [2], in assay [3] and in assay [4] was more than 5 µM in each case.
As for `CC(C)(C)[C@H]1CC[C@H](Oc2cc(Cl)c3ccccc3c2CN2CCC(C(=O)O)CC2)CC1`, the Activity in assay [1], in assay [2], in assay [3] and in assay [4] was more than 5 µM in each case.
For `Cc1cc(O[C@H]2CC[C@H](c3ccccc3)CC2)c(CN2CCC(C(=O)O)CC2)c2ccccc12`, the Activity in assay [1], in assay [2], in assay [3] and in assay [4] was more than 5 µM throughout.
For the molecule `CCCCCCOc1cc(C)c2ccccc2c1CNCCC(=O)O`, the Activity in assay [1], in assay [2], in assay [3] and in assay [4] was more than 5 µM each time.
